Measured values reported in USRE39616E1, “Aminoindan derivatives” (priority 1996, dated 2007).

Amino acid sequences for entries named in this document (tags omitted). Residues count along the entry.
UniProt P22303, 32-617 isoform 2 limits assumed: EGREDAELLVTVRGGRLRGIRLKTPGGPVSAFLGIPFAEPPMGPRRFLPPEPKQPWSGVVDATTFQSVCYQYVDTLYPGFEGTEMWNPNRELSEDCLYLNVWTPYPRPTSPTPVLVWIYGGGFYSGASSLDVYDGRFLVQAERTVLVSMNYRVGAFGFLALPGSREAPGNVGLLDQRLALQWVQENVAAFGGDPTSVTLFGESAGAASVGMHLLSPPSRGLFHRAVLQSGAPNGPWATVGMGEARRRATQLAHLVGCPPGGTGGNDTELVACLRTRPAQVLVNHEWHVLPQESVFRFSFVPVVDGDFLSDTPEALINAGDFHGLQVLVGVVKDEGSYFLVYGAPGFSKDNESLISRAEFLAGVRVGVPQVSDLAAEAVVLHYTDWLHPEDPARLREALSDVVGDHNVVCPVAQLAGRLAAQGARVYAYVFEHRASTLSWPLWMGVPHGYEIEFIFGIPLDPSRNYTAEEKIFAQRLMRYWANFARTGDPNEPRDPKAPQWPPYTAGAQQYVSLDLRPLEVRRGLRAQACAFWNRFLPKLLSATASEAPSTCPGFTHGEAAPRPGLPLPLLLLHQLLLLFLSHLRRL
UniProt P21836, 32-614 limits assumed: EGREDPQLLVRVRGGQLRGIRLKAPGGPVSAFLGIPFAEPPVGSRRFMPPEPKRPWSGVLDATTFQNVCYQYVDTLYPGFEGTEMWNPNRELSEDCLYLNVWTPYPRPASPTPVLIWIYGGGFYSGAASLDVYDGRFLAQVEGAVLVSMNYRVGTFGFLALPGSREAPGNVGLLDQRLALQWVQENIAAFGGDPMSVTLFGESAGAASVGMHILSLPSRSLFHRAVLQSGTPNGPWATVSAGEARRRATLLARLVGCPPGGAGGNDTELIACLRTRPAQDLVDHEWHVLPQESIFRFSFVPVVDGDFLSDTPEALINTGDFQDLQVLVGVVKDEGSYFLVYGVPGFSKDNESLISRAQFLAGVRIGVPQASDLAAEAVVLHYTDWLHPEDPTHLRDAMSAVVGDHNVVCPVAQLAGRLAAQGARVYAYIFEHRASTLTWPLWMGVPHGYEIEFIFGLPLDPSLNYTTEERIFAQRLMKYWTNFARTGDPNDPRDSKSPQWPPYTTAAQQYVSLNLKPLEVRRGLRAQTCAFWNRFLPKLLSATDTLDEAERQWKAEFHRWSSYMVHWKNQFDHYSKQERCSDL
UniProt P19643, whole entry: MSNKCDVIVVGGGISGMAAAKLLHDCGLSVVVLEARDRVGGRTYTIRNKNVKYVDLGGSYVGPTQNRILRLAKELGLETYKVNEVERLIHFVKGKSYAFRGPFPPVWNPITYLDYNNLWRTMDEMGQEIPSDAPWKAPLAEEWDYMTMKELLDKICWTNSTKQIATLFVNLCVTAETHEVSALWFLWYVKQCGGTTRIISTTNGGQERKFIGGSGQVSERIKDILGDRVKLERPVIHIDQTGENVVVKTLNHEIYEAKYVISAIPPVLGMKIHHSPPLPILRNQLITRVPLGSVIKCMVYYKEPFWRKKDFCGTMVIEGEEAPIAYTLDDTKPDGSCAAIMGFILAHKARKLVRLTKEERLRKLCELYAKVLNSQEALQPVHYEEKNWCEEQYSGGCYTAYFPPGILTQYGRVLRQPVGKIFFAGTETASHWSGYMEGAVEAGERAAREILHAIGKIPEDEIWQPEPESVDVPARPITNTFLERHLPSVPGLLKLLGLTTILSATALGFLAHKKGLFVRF
UniProt Q8BW75, whole entry: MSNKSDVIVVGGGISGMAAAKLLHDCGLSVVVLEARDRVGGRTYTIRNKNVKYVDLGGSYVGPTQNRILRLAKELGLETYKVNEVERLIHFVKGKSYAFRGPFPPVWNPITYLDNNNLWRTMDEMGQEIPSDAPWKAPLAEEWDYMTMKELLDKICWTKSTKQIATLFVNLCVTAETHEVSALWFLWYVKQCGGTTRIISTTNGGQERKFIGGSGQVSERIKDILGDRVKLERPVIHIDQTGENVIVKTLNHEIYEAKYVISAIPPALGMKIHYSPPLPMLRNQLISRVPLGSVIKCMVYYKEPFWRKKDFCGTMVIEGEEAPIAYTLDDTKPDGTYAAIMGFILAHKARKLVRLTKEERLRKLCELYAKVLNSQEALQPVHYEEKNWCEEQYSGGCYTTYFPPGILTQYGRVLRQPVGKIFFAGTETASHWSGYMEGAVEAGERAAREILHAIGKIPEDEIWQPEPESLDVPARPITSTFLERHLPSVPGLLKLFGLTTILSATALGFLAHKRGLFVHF
UniProt Q64133, whole entry: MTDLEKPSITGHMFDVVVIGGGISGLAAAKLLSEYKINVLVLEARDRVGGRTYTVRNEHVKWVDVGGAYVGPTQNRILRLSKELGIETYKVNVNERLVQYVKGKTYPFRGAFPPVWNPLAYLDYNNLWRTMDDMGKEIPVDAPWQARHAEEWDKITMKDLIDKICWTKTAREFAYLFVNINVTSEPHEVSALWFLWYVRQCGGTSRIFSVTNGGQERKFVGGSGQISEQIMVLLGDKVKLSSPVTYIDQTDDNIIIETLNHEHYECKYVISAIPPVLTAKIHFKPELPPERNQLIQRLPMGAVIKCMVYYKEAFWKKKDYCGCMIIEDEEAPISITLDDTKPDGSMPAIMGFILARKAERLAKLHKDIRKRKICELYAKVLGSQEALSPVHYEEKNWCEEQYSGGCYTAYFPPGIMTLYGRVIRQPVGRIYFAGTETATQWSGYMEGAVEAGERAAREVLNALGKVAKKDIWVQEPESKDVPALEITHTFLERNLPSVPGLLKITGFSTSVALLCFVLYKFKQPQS
UniProt P21396, whole entry: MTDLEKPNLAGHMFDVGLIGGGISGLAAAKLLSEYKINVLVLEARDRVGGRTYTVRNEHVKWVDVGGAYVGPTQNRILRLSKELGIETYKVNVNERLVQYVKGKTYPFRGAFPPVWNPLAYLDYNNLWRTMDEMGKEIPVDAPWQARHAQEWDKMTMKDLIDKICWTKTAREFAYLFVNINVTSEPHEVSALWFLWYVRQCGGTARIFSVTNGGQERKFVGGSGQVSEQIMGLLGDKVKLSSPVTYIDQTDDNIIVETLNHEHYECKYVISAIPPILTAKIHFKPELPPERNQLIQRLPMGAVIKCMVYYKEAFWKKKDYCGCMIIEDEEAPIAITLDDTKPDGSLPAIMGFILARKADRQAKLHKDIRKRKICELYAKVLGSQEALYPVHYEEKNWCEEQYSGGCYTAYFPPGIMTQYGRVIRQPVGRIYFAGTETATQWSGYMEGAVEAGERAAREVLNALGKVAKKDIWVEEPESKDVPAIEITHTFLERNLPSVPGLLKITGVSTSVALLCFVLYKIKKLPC

Tests used:
[1] = target: Human erythrocyte acetylcholinesterase (Homo sapiens, UniProt P22303); conditions: read-out: AChE Inhibition In vitro IC50
whole brain AChE = whole brain AChE (Mus musculus, UniProt P21836); conditions: tested form: HCl; for AChE Inhibition Ex vivo ED50 (AC): mice, whole brain, at peak of activity; for AChE Inhibition Time to peak activity t: mouse, in vivo
MAO-B [2] = target: T1, MAO-B (Rattus norvegicus, UniProt P19643); test: Inhibition of MAO activity in vitro, PEA as substrate; type: biochemical; conditions: read-out: MAO-B Inhibition In vitro IC50, rat brain homogenate, tested form: HCl
[3] = test system: Closed Head Injury (CHI) in Mice; conditions: mice after CHI; 30 mg/kg; retested daily for 2 weeks; FIG. 3; tested form: HCl
MAO-B [4] = target: MAO-B (Mus musculus, UniProt Q8BW75); test: Inhibition of MAO activity ex vivo (brain); type: in vivo; conditions: mice, brain tissue; tested form: HCl
MAO-A [5] = target: MAO-A (Mus musculus, UniProt Q64133); test: Inhibition of MAO activity ex vivo (brain); type: in vivo; conditions: mice, brain tissue; tested form: HCl
MAO-A [6] = target: T2, MAO-A (Rattus norvegicus, UniProt P21396); conditions: rats, tested form: HCl; for selectivity of MAO inhibition, brain versus periphery (liver, intestines): daily for 14 days, sc and/or po, MAO-A and MAO-B (Table 11a)
MAO-B [7] = target: T1, MAO-B; test: Inhibition of MAO activity following sub-acute administration to rats; type: in vivo; conditions: tested form: HCl
[8] = test system: Closed Head Injury (CHI) in Mice; test: Closed Head Injury (CHI) in mice: motor function, neurological severity score (NSS); type: in vivo; conditions: 30 mg/kg sc once 15 min after CHI, difference from NSS at 1 hr, tested form: HCl
MAO-A [9] = target: T2, MAO-A; test: Inhibition of MAO activity in vitro, 5-HT as substrate; type: biochemical; conditions: read-out: MAO-A Inhibition In vitro IC50; rat brain homogenate, 5-HT substrate; tested form: HCl
[10] = Brain, sc, 40 mg/kg daily for 14 days
[11] = Intestine, sc, 40 mg/kg daily for 14 days
[12] = Liver, sc, 40 mg/kg daily for 14 days
[13] = Brain, po, 45 mg/kg daily for 14 days
[14] = Intestine, po, 45 mg/kg daily for 14 days
[15] = Intestine, sc, 45 mg/kg daily for 14 days
[16] = Liver, po, 45 mg/kg daily for 14 days
[17] = Liver, sc, 45 mg/kg daily for 14 days

Compound	IC50 ([1]; tested form: HCl) [µM]	AChE Inhibition Ex vivo ED50 (AC) (whole brain AChE) [µmol/kg]	AChE Inhibition Time to peak activity t (whole brain AChE) [min]	IC50 (MAO-B [2]) [µM]	reduction in latency to find the platform, Morris Water Maze, compared to saline treated controls [3]	MAO-B Inhibition Ex vivo ED50 (MAO-B [4])	MAO-A Inhibition Ex vivo ED50 (MAO-A [5])	selectivity of MAO inhibition, brain versus periphery (liver, intestines) (MAO-A [6])	ΔNSS, 24 hr post-CHl [8]	ΔNSS, 7 days post-CHl [8]	ΔNSS, 14 days post-CHl [8]	further results
C#CCNC1CCc2ccc(OC(=O)N(C)CC)cc21 (centres unmarked)												IC50 ([1]; tested form: mesylate): 51 µM
C#CCN[C@H]1CCc2ccc(OC(=O)N(C)CC)cc21	36	80	30 to 60	1000	Memory is enhanced	>>200 μmoles/kg	>>200 μmoles/kg	selectivity in inhibiting MAO enzyme sub-types in the brain in preference to the periphery	5.36 ± 0.25	6.71 ± 0.45	7.64 ± 0.48	% MAO-A inhibition (MAO-A [6]; [10]): 17%; % MAO-A inhibition (MAO-A [6]; [11]): 0%; % MAO-A inhibition (MAO-A [6]; [12]): 0%; % MAO-B inhibition (MAO-B [7]; [10]): 27%; % MAO-B inhibition (MAO-B [7]; [11]): 40%; % MAO-B inhibition (MAO-B [7]; [12]): 0%
C#CCN[C@@H]1CCc2ccc(OC(=O)N(C)CCC)cc21	10	101	60 to 90			450 µmol/kg	>>450 μmoles/kg					
C#CCNC1CCc2cc(Cl)c(OC(=O)N(C)CC)cc21 (centres unmarked)	29	>100				130 µmol/kg	>100 µmol/kg					
C#CCN[C@@H]1CCc2ccc(OC(=O)N(C)CC)cc21	51	125		500	Memory is enhanced	200 µmol/kg	>200 µmol/kg	selectivity in inhibiting MAO enzyme sub-types in the brain in preference to the periphery	5.50 ± 0.26	6.92 ± 0.38	8.25 ± 0.62	% MAO-A inhibition (MAO-A [6]; [13]): 67%; % MAO-A inhibition (MAO-A [6]; Brain, sc, 45 mg/kg daily for 14 days): 78%; % MAO-A inhibition (MAO-A [6]; [14]): 0%; % MAO-A inhibition (MAO-A [6]; [15]): 0%; % MAO-A inhibition (MAO-A [6]; [16]): 28%; % MAO-A inhibition (MAO-A [6]; [17]): 0%; % MAO-B inhibition (MAO-B [7]; [13]): 82%; % MAO-B inhibition (MAO-B [7]; [14]): 21%; % MAO-B inhibition (MAO-B [7]; [15]): 26%; % MAO-B inhibition (MAO-B [7]; [16]): 28%; % MAO-B inhibition (MAO-B [7]; [17]): 29%; IC50 (MAO-A [9]): 750 µM
C#CCNC1CCc2cc(Cl)c(OC(=O)N(C)CCC)cc21 (centres unmarked)	38	>200				>100 µmol/kg	>100 µmol/kg					

Like-named read-outs stand apart in the source and are kept apart here.
